Patent US7235627B2, “Derivatives of GLP-1 analogs” (Novo Nordisk A/S, priority 1996, dated 2007)

Assay: Circular Dichroism (CD) at 222 nm as a function of peptide concentration (helix content)
Format: physicochemical
Conditions: 25 μM peptide, 10 mM tris buffer, pH 8, 23° C.
Procedure: […]. For the GLP-1 derivatives forming partially structured micellar-like aggregates in aqueous solution the helix content remains constant above 30% at concentrations of 10 μM. The aggregated structured conformation is an inherent property of the derivative present in water or dilute aqueous buffer without the need for any additional structure-inducing components.

In the case of GLP-1(7–37), the “content of α-helix (CD at 222 nm)” value is reported as “about 15%”.

Same assay, conditions: 1000 μM peptide, 10 mM tris buffer, pH 8, 23° C.

For GLP-1(7–37), the “content of α-helix (CD at 222 nm)” value was 30–35%.

Same assay, conditions: at 500 μM concentration

For GLP-1(7–37), the “helix content (CD)” value was 30–35%.

Same assay, conditions: low peptide concentration, before the increase with concentration

For GLP-1(7–37), the “helix content (CD)” value was 10–15%.

Assay: Protraction of GLP-1 derivatives after s.c. administration: plasma concentration by RIA
Format: in vivo, pigs (50% Duroc, 25% Yorkshire, 25% Danish Landrace)
Conditions: healthy pigs, 0.5 nmol/kg sc, 0.75 h after administration, n=2

First: Arg^26,34Lys^36(N^ε-(ω-carboxyheptadecanoyl))-GLP-1(7–37)-OH [Example 12]
Second: Arg^26,34Lys^38(N^ε-(γ-glutamyl(N^α-hexadecanoyl)))-GLP-1(7–38)-OH [Example 40]
The “plasma concentration, % of the maximum concentration for the individual compound” value (“plasma concentration, %” below) of the first is lower: 36% for the first, 47% for the second.

Compared with “Arg^26,34Lys^38(N^ε-(γ-glutamyl(N^α-tetradecanoyl)))-GLP-1(7–38)-OH [Example 38]”, “Arg^26,34 Lys^36(N^ε-(ω-carboxyheptadecanoyl))-GLP-1(7–36)-OH [Example 14]” is lower in “plasma concentration, %” value: 60% for the first, 18% for the second.

Compared with “Arg^34Lys^26(N^ε-(ω-carboxypentadecanoyl))-GLP-1(7–37)-OH [Example 25]”, “Arg^26,34Lys^38 -(N^ε-(ω-carboxypentadecanoyl))-GLP-1(7–38)-OH [Example 34]” is lower in “plasma concentration, %” value: 73% for the first, 19% for the second.

Same assay, conditions: healthy pigs, 0.5 nmol/kg sc, 1 h after administration, n=2

First: Arg^26,34Lys^36(N^ε-(ω-carboxyheptadecanoyl))-GLP-1(7–37)-OH [Example 12]
Second: Arg^26,34Lys^38(N^ε-(γ-glutamyl(N^α-hexadecanoyl)))-GLP-1(7–38)-OH [Example 40]
The “plasma concentration, %” value of the first is higher: 54% for the first, 19% for the second.

Compared with “Arg^26,34Lys^38(N^ε-(γ-glutamyl(N^α-tetradecanoyl)))-GLP-1(7–38)-OH [Example 38]”, “Arg^26,34 Lys^36(N^ε-(ω-carboxyheptadecanoyl))-GLP-1(7–36)-OH [Example 14]” is lower in “plasma concentration, %” value: 53% for the first, 25% for the second.

First: Arg^34Lys^26(N^ε-(ω-carboxypentadecanoyl))-GLP-1(7–37)-OH [Example 25]
Second: Arg^26,34Lys^38 -(N^ε-(ω-carboxypentadecanoyl))-GLP-1(7–38)-OH [Example 34]
The “plasma concentration, %” value of the first is higher: 92% for the first, 32% for the second.

Same assay, conditions: healthy pigs, 0.5 nmol/kg sc, 2 h after administration, n=2

Compared with “Arg^26,34Lys^36(N^ε-(ω-carboxyheptadecanoyl))-GLP-1(7–37)-OH [Example 12]”, “Arg^26,34Lys^38(N^ε-(γ-glutamyl(N^α-hexadecanoyl)))-GLP-1(7–38)-OH [Example 40]” is lower in “plasma concentration, %” value: 65% for the first, 50% for the second.

Going from “Arg^26,34Lys^38(N^ε-(γ-glutamyl(N^α-tetradecanoyl)))-GLP-1(7–38)-OH [Example 38]” to “Arg^26,34 Lys^36(N^ε-(ω-carboxyheptadecanoyl))-GLP-1(7–36)-OH [Example 14]”, the “plasma concentration, %” value falls from 100% to 32%.

First: Arg^34Lys^26(N^ε-(ω-carboxypentadecanoyl))-GLP-1(7–37)-OH [Example 25]
Second: Arg^26,34Lys^38 -(N^ε-(ω-carboxypentadecanoyl))-GLP-1(7–38)-OH [Example 34]
The “plasma concentration, %” value of the first is higher: 100% for the first, 44% for the second.

Same assay, conditions: healthy pigs, 0.5 nmol/kg sc, 4 h after administration, n=2

First: Arg^26,34Lys^36(N^ε-(ω-carboxyheptadecanoyl))-GLP-1(7–37)-OH [Example 12]
Second: Arg^26,34Lys^38(N^ε-(γ-glutamyl(N^α-hexadecanoyl)))-GLP-1(7–38)-OH [Example 40]
The “plasma concentration, %” value of the first is lower: 94% for the first, 100% for the second.

Going from “Arg^26,34Lys^38(N^ε-(γ-glutamyl(N^α-tetradecanoyl)))-GLP-1(7–38)-OH [Example 38]” to “Arg^26,34 Lys^36(N^ε-(ω-carboxyheptadecanoyl))-GLP-1(7–36)-OH [Example 14]”, the “plasma concentration, %” value falls from 66% to 47%.

Compared with “Arg^34Lys^26(N^ε-(ω-carboxypentadecanoyl))-GLP-1(7–37)-OH [Example 25]”, “Arg^26,34Lys^38 -(N^ε-(ω-carboxypentadecanoyl))-GLP-1(7–38)-OH [Example 34]” is lower in “plasma concentration, %” value: 98% for the first, 84% for the second.

Same assay, conditions: healthy pigs, 0.5 nmol/kg sc, 6 h after administration, n=2

First: Arg^26,34Lys^36(N^ε-(ω-carboxyheptadecanoyl))-GLP-1(7–37)-OH [Example 12]
Second: Arg^26,34Lys^38(N^ε-(γ-glutamyl(N^α-hexadecanoyl)))-GLP-1(7–38)-OH [Example 40]
The “plasma concentration, %” value of the first is higher: 80% for the first, 51% for the second.

Compared with “Arg^26,34Lys^38(N^ε-(γ-glutamyl(N^α-tetradecanoyl)))-GLP-1(7–38)-OH [Example 38]”, “Arg^26,34 Lys^36(N^ε-(ω-carboxyheptadecanoyl))-GLP-1(7–36)-OH [Example 14]” is higher in “plasma concentration, %” value: 48% for the first, 98% for the second.

Compared with “Arg^34Lys^26(N^ε-(ω-carboxypentadecanoyl))-GLP-1(7–37)-OH [Example 25]”, “Arg^26,34Lys^38 -(N^ε-(ω-carboxypentadecanoyl))-GLP-1(7–38)-OH [Example 34]” is lower in “plasma concentration, %” value: 82% for the first, 59% for the second.

Same assay, conditions: healthy pigs, 0.5 nmol/kg sc, 8 h after administration, n=2

First: Arg^26,34Lys^36(N^ε-(ω-carboxyheptadecanoyl))-GLP-1(7–37)-OH [Example 12]
Second: Arg^26,34Lys^38(N^ε-(γ-glutamyl(N^α-hexadecanoyl)))-GLP-1(7–38)-OH [Example 40]
The “plasma concentration, %” value of the first is higher: 100% for the first, 56% for the second.

Compared with “Arg^26,34Lys^38(N^ε-(γ-glutamyl(N^α-tetradecanoyl)))-GLP-1(7–38)-OH [Example 38]”, “Arg^26,34 Lys^36(N^ε-(ω-carboxyheptadecanoyl))-GLP-1(7–36)-OH [Example 14]” is higher in “plasma concentration, %” value: 39% for the first, 83% for the second.

Going from “Arg^34Lys^26(N^ε-(ω-carboxypentadecanoyl))-GLP-1(7–37)-OH [Example 25]” to “Arg^26,34Lys^38 -(N^ε-(ω-carboxypentadecanoyl))-GLP-1(7–38)-OH [Example 34]”, the “plasma concentration, %” value rises from 24% to 66%.

Same assay, conditions: healthy pigs, 0.5 nmol/kg sc, 10 h after administration, n=2

Going from “Arg^26,34Lys^36(N^ε-(ω-carboxyheptadecanoyl))-GLP-1(7–37)-OH [Example 12]” to “Arg^26,34Lys^38(N^ε-(γ-glutamyl(N^α-hexadecanoyl)))-GLP-1(7–38)-OH [Example 40]”, the “plasma concentration, %” value falls from 85% to 34%.

First: Arg^26,34Lys^38(N^ε-(γ-glutamyl(N^α-tetradecanoyl)))-GLP-1(7–38)-OH [Example 38]
Second: Arg^26,34 Lys^36(N^ε-(ω-carboxyheptadecanoyl))-GLP-1(7–36)-OH [Example 14]
The “plasma concentration, %” value of the first is lower: 25% for the first, 97% for the second.

Compared with “Arg^34Lys^26(N^ε-(ω-carboxypentadecanoyl))-GLP-1(7–37)-OH [Example 25]”, “Arg^26,34Lys^38 -(N^ε-(ω-carboxypentadecanoyl))-GLP-1(7–38)-OH [Example 34]” is higher in “plasma concentration, %” value: 16% for the first, 83% for the second.

Same assay, conditions: healthy pigs, 0.5 nmol/kg sc, 12 h after administration, n=2

First: Arg^26,34Lys^38(N^ε-(γ-glutamyl(N^α-hexadecanoyl)))-GLP-1(7–38)-OH [Example 40]
Second: Arg^26,34Lys^38(N^ε-(γ-glutamyl(N^α-tetradecanoyl)))-GLP-1(7–38)-OH [Example 38]
The “plasma concentration, %” value of the first is lower: 14% for the first, 29% for the second.

First: Arg^34Lys^26(N^ε-(ω-carboxypentadecanoyl))-GLP-1(7–37)-OH [Example 25]
Second: Arg^26,34Lys^38 -(N^ε-(ω-carboxypentadecanoyl))-GLP-1(7–38)-OH [Example 34]
The “plasma concentration, %” value of the first is lower: 16% for the first, 84% for the second.

Same assay, conditions: healthy pigs, 0.5 nmol/kg sc, 24 h after administration, n=2

Going from “Arg^26,34Lys^36(N^ε-(ω-carboxyheptadecanoyl))-GLP-1(7–37)-OH [Example 12]” to “Arg^26,34Lys^38(N^ε-(γ-glutamyl(N^α-hexadecanoyl)))-GLP-1(7–38)-OH [Example 40]”, the “plasma concentration, %” value falls from 93% to 0%.

First: Arg^26,34Lys^38(N^ε-(γ-glutamyl(N^α-tetradecanoyl)))-GLP-1(7–38)-OH [Example 38]
Second: Arg^26,34 Lys^36(N^ε-(ω-carboxyheptadecanoyl))-GLP-1(7–36)-OH [Example 14]
The “plasma concentration, %” value of the first is lower: 0% for the first, 100% for the second.

Going from “Arg^34Lys^26(N^ε-(ω-carboxypentadecanoyl))-GLP-1(7–37)-OH [Example 25]” to “Arg^26,34Lys^38 -(N^ε-(ω-carboxypentadecanoyl))-GLP-1(7–38)-OH [Example 34]”, the “plasma concentration, %” value rises from 16% to 100%.
